How the values were obtained:
rat PTHR = biological target: T1, rat PTHR (Rattus norvegicus, UniProt P25961); experiment: u-PA secretion bioassay in LLC-PK1 cells expressing rat PTHR; assay type: cell-based
T1 construct: expressed in transfected cells; host or cells: LLC-PK1 porcine renal epithelial cells (EW5; also EW29, AR-C38, AR-B44)
T1 sequence (P25961 27-591): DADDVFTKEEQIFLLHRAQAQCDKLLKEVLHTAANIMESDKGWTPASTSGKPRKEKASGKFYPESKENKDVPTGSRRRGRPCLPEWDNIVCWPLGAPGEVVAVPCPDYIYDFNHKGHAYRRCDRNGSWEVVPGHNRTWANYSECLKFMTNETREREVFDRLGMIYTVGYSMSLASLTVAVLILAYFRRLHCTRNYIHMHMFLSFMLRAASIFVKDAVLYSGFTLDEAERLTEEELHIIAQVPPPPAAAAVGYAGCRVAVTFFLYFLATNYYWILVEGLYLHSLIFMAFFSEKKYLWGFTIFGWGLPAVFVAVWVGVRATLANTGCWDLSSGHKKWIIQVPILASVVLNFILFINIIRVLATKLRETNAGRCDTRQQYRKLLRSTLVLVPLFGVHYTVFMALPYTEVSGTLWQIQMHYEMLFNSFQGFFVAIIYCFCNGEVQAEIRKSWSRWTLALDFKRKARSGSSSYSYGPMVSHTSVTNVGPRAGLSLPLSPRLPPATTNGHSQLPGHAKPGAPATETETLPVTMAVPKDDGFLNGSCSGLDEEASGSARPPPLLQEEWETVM

human PTH/PTHrP receptor [1] = biological target: T2, human PTH/PTHrP receptor (Homo sapiens, UniProt Q03431); experiment: IP3 production (PLC activation) in LLC-PK1 cells expressing human PTHR; assay type: cell-based; set-up: transfected with a full-length human PTH/PTHrP receptor cDNA; expressed in transfected cells; conditions: HKRK B28 cells; 1000 nM
T2 sequence (Q03431 27-593): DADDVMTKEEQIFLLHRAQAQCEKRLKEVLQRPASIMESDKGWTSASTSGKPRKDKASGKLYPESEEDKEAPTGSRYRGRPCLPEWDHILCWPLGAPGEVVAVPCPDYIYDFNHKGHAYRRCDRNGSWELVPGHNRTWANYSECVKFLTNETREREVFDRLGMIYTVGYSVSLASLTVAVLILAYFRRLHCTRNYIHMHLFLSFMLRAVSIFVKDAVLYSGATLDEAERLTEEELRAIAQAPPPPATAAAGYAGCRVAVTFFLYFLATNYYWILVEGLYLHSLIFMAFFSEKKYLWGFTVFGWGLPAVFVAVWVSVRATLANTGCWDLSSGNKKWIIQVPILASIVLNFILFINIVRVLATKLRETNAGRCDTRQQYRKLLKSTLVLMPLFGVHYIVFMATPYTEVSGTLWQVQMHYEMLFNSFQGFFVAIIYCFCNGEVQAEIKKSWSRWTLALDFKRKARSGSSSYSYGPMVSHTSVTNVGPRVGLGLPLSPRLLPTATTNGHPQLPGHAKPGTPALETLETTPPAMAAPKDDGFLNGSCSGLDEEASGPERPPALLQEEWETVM
Protocol: Cells were seeded into 24-well plates at a density of 2.5×10^5 cells/well and cultured for a further 2 days before study. The cells were labeled at 37° C. for 16 h before assay with 3 uCi/ml of [^3H]myo-inositol in assay medium (serum- and inositol-free DMEM (GIBCO-BRL, Grand Island, N.Y.) supplemented with 0.1% BSA). After washing the cells with prewarmed assay medium containing 30 mM LiCl, they were incubated with 0.25 ml of assay medium containing 30 mM LiCl and stimulators (or vehicle) at 37° C. for various intervals(1-30 min). IP3 formation was arrested by aspiration and immediate addition of 0.5 ml of ice-cold 5% TCA. […] After eluting other fractions (free [^3H]myo-inositol, glycerophosphate inositol, IP1, and IP2), IP3 fractions were collected and their content of radioactivity was determined by liquid scintillation spectrometry (Beckman, model LS 6000IC).
HKRK B7 cells and HKRK B28 cells, previously loaded with [^3H]myo-inositol, were incubated with each peptide (1000 nM) for 30 min or 4 min, respectively. The formation of IP3 is expressed as a percentage of the amount measured in vehicle-treated controls. […]

human PTH/PTHrP receptor [2] = biological target: T2, human PTH/PTHrP receptor; experiment: Urokinase-type plasminogen activator (u-PA) secretion bioassay in LLC-PK1 cells expressing human PTHR; conditions: AB45 cells (hPTHR + REV AB dominant-negative PKA inhibitor), 16 hr

CC[C@H](C)[C@H](NC(=O)[C@H](CCC(=O)O)NC(=O)[C@H](CO)NC(=O)[C@@H](NC(=O)[C@@H](N)CO)C(C)C)C(=O)N[C@@H](CCC(N)=O)C(=O)N[C@@H](CC(C)C)C(=O)N[C@@H](CCSC)C(=O)N[C@@H](Cc1c[nH]cn1)C(=O)N[C@@H](CC(N)=O)C(=O)N[C@@H](CC(C)C)C(=O)NCC(=O)N[C@@H](CCCCN)C(=O)N[C@@H](Cc1c[nH]cn1)C(=O)N[C@@H](CC(C)C)C(=O)N[C@@H](CC(N)=O)C(=O)N[C@@H](CO)C(=O)N[C@@H](CCSC)C(=O)N[C@@H](CCC(=O)O)C(=O)N[C@@H](CCCNC(=N)N)C(=O)N[C@H](C(=O)N[C@@H](CCC(=O)O)C(=O)N[C@@H](Cc1c[nH]c2ccccc12)C(=O)N[C@@H](CC(C)C)C(=O)N[C@@H](CCCNC(=N)N)C(=O)N[C@@H](CCCCN)C(=O)N[C@@H](CCCCN)C(=O)N[C@@H](CC(C)C)C(=O)N[C@@H](CCC(N)=O)C(=O)N[C@@H](CC(=O)O)C(=O)N[C@H](C(=O)N[C@@H](Cc1c[nH]cn1)C(=O)N[C@@H](CC(N)=O)C(=O)N[C@@H](Cc1ccc(O)cc1)C(N)=O)C(C)C)C(C)C [hPTH(1-34), [Tyr^34]hPTH(1-34)]
u-PA Activity (rat PTHR; EW5 cells, 320,000 rat PTHRs per cell, peptide 1000 nM, mean±SEM): 43.5 ± 1.8 units/well | u-PA production at 16 hr (in words) (rat PTHR; EW5 cells, 100 nM of either peptide): identical | time of decrease of IP3 to basal levels (human PTH/PTHrP receptor [1]): ≤ 10 min | time of peak of transient IP3 formation (human PTH/PTHrP receptor [1]): 4 min | u-PA response in cAMP-resistant cells (in words) (human PTH/PTHrP receptor [2]): dramatically attenuated but remained significantly greater than that achieved with a maximal concentration of 8BrcAMP
